# Results taken from patent US12528818B2, “Compositions and methods for inhibition of RAS” (Leidos Biomedical Research, Inc., priority 2021, dated 2026).
# Amino acid sequences for entries named in this document (tags omitted). Residues count along the entry.
# UniProt P01116, 1-169 isoform 2 C118S/G12C limits assumed: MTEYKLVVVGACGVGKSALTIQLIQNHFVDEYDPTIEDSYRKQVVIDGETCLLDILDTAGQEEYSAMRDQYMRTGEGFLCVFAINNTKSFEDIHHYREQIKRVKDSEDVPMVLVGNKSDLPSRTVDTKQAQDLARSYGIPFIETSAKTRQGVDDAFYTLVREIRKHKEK
# UniProt P01116, 1-169 isoform 2 G12C limits assumed: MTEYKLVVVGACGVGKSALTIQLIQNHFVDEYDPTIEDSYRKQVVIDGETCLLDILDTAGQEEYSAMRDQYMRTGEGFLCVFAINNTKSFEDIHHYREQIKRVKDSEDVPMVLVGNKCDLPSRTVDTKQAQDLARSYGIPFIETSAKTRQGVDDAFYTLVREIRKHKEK
# pIC50: −log10 of the molar value.
# Columns and labels:
# [1] = target: Avi-KRAS G12C (1-169) GppNHp/RAF1 RBD-3xFLAG (52-151) (Homo sapiens, UniProt P01116, G12C); assay: Raf1 RBD-KRAS G12C-GppNHp disruption assay (protein:protein interaction HTRF); conditions: read-out: Raf1-GppNHp-KRAS G12C disruption
# [2] = target: GDP-loaded KRAS4b (amino acids 1-169) G12C/C118S protein (Homo sapiens, UniProt P01116, C118S/G12C); assay: Covalent cysteine 12 modification by MALDI-TOF MS, GDP-loaded KRAS G12C; conditions: 15 minutes reaction time
# [3] = target: GppNHp-loaded KRAS4b (amino acids 1-169) G12C/C118S protein (Homo sapiens, UniProt P01116, C118S/G12C); assay: Covalent cysteine 12 modification by MALDI-TOF MS, GppNHp-loaded KRAS G12C; conditions: 15 minutes reaction time
# pERK in NCI-H358 cells = assay: Cell-based pERK HTRF assay (pERK inhibition in H358 cells); conditions: read-out: PERK in H358 cell, 30 min incubation
# [4] = target: GTP-loaded KRAS4b (amino acids 1-169) G12C/C118S protein (Homo sapiens, UniProt P01116, C118S/G12C); assay: Covalent cysteine 12 modification by MALDI-TOF MS, GTP-loaded KRAS G12C; conditions: 15 minutes reaction time, compound 95 or later using 1 μM proteins
# [5] = compounds 94 or before using 5 μM proteins
# [6] = compound 95 or later using 1 μM proteins
pIC50 [1],"GDP-KRAS G12C percent of modification [2, 5]","GppNHp-KRAS G12C percent of modification [3, 5]","GDP-KRAS G12C percent of modification [2, 6]",pIC50 (pERK in NCI-H358 cells),"GppNHp-KRAS G12C percent of modification [3, 6]",GTP-KRAS G12C percent of modification [4],Compound
5.30 to 6.30,B (50≤percent of modification <70%),C (10%≤percent of modification <50%),,,,,N#CN1CC2(CCN(c3ncnc4c(F)c(-c5ccc(F)c6sc(N)nc56)c(Cl)cc34)CC2)C1
< 4.70,,,A (percent of modification ≥70%),6.00 to 7.00,D (percent of modification <10%),,"C=CC(=O)N1CC[C@@H](N(C)c2c(C#N)c(OC[C@@]34CCCN3C[C@H](F)C4)nc3c(F)c(-c4ccc(F)c5sc(N)nc45)c(Cl)cc23)C1 (atropisomer, axis not shown) [Compound 234]"
> 6.30,,,A (percent of modification ≥70%),> 7.00,A (percent of modification ≥70%),B (50≤percent of modification <70%),C=CC(=O)N1CC[C@@H](N(C)c2nc(OC[C@]34CCCN3C[C@H](F)C4)nc3c(F)c(-c4ccc(F)c5sc(N)c(C#N)c45)c(Cl)cc23)[C@H]1C (relative stereo)
> 6.30,,,A (percent of modification ≥70%),> 7.00,A (percent of modification ≥70%),B (50≤percent of modification <70%),C=CC(=O)N1C[C@H](C)N(c2nc(OC[C@@]34CCCN3C[C@H](F)C4)nc3c(F)c(-c4ccc(F)c5sc(N)c(C#N)c45)c(Cl)cc23)C[C@H]1C
> 6.30,,,A (percent of modification ≥70%),> 7.00,A (percent of modification ≥70%),A (percent of modification ≥70%),C=CC(=O)N1CC[C@@H](N(CC)c2nc(OC[C@@]34CCCN3C[C@H](F)C4)nc3cc(-c4ccc(F)c5sc(N)c(C#N)c45)c(C#N)cc23)[C@H]1C (relative stereo)
> 6.30,,,C (10%≤percent of modification <50%),> 7.00,C (10%≤percent of modification <50%),C (10%≤percent of modification <50%),C=CC(=O)N1CC[C@@H](N(CC)c2nc(OC[C@@H]3C[C@@H](F)CN3C)nc3c(F)c(-c4ccc(F)c5sc(N)c(C#N)c45)c(C(F)(F)F)cc23)[C@H]1C (relative stereo)
